According to patent US8933021B2, “Insulin derivative” (Novo Nordisk A/S, priority 2006, dated 2015):

Columns and labels:
[1] = Hydrophobicity (hydrophobic index k'rel) relative to human insulin by isocratic RP-HPLC; assay type: physicochemical
Description: The elution was monitored by following the UV absorption of the eluate at 214 nm. Void time, t0, was found by injecting 0.1 mM sodium nitrate.

[2] = Self-association by size exclusion chromatography (SEC), Kav; assay type: physicochemical
Description: The ability of the insulin derivatives of the invention to self-associate into large, but soluble complexes is analysed using SEC (size exclusion chromatography):
The following equation is used to determine the Kav for the derivative: Kav=(t−t0)/(Vt/(f+td−t0)) Where t is the retention time for a given peak, t0 is the retention time for Blue dextran, Vt is the total column volume (here 2.4 ml), f is the flow (here 0.04 ml/min), and td is the retention time for Blue dextran without the column in the system.

human serum albumin = human serum albumin (Homo sapiens, UniProt P02768); experiment: Human serum albumin affinity assay (125I-TyrA14-analogue, HSA immobilised on Minileak particles); assay type: binding

With “N^εB29-ω-carboxy-pentadecanoyl-γ-L-aspartylamide desB30 human insulin [Example 6]” the “Hydrophobicity relative to human insulin” value ([1]; LiChrosorb RP18, 40° C., pH 7.3, HI = 1) was 1.617, the “Hydrophobicity relative to human insulin” value ([1]; class symbol, HI = 1) was “++ (1-10: ++)” and the “Self-association: Kav” value ([2]; SEC Superose 6, 37° C., 0.6 mM derivative, 2.1 Zn2+/hexamer, 16 mM phenol, pH 7.8, one value per peak) was 0.01. The “Self-association: % area of peak” value ([2]; area of the peak whose Kav is in the cell above) was “(90%)”, the “Self-association: Kav” value ([2]; class symbol) was “+++ (Kav < 0.1: +++)” and the “Human serum albumin affinity relative to insulin detemir” value (human serum albumin; class symbol) was “++ (0.5-2: ++)”. For the same substance, the “Human serum albumin affinity relative to insulin detemir” value (human serum albumin; relative binding constant, 23° C., detemir=1 in saline buffer) was 1.36.
